Measured values taken from PMC4309955 (Scientific Reports, 2015).
pIC50: −log10 of the molar value.

How the values were obtained:
[1] = target: T1, human AT1R (angiotensin II type 1 receptor) (Homo sapiens, UniProt P30556); test: inhibition of AngII-induced beta-arrestin activation, cell impedance; type: cell-based
[2] = target: T1, human AT1R (angiotensin II type 1 receptor); test: inhibition of AngII-induced G protein activation, cell impedance; type: cell-based

CCCCc1nc(Cl)c(C(=O)O)n1Cc1ccc(-c2ccccc2-c2nn[nH]n2)cc1 [EXP3174]
pIC50 [1]: 8.51 | pIC50 [2]: 8.68
